Values of other authors, collected in patent publication US7238658B2 (Genentech, Inc., priority 2001, dated 2007).

Sequences of proteins named here, by UniProt entry; tags and fusion partners are left off. Residues count along the entry.
UniProt P08069, 741-1367 partner limits assumed: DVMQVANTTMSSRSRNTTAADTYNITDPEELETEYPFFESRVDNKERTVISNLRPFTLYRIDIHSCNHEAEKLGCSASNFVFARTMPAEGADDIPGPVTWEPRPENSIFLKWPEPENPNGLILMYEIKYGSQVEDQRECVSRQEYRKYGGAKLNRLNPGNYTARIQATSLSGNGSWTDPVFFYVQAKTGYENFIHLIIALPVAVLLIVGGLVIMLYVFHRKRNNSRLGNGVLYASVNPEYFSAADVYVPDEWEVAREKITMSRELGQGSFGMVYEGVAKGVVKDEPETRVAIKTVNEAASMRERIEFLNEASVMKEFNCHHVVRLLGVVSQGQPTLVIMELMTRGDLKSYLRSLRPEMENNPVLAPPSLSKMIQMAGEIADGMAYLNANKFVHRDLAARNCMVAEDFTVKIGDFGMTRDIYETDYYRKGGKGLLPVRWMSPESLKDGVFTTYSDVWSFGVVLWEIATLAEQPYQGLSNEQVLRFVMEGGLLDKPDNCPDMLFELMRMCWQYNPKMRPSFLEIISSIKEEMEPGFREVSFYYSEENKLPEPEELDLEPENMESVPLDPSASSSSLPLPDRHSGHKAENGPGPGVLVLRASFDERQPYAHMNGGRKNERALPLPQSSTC
UniProt P08069, 31-736 limits assumed: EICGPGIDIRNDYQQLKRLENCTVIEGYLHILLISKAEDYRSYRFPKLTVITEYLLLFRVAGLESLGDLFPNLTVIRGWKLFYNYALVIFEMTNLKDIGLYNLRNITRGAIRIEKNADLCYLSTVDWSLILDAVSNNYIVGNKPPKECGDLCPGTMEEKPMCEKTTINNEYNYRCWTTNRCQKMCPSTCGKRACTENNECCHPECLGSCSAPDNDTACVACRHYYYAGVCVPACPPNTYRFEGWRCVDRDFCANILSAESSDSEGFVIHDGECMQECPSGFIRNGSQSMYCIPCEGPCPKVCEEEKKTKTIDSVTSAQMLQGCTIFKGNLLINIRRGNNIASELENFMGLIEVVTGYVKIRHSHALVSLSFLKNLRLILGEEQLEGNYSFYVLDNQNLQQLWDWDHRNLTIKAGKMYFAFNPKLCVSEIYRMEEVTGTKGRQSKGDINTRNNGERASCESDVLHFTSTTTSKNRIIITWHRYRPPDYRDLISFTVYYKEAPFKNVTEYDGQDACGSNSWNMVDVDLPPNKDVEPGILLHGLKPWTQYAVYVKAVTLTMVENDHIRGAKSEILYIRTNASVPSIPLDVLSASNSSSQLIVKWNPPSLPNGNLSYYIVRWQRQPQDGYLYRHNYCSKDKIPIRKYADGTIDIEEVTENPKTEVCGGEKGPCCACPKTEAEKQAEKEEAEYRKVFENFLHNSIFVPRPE

Molecular target: IGF-1R (Homo sapiens, UniProt P08069)
Details: read-out: Kd, low affinity site of IGF-1R; cited from earlier work

In the case of “IGF-1: human insulin-like growth factor-1, native mature sequence (SEQ ID NO: 1), recombinant from E. coli”, the Kd is listed as roughly 6 nM.
